{"sequences": {"note": "By UniProt entry, the sequences of proteins in these tests, tags left out.", "UniProt P34972, whole entry": "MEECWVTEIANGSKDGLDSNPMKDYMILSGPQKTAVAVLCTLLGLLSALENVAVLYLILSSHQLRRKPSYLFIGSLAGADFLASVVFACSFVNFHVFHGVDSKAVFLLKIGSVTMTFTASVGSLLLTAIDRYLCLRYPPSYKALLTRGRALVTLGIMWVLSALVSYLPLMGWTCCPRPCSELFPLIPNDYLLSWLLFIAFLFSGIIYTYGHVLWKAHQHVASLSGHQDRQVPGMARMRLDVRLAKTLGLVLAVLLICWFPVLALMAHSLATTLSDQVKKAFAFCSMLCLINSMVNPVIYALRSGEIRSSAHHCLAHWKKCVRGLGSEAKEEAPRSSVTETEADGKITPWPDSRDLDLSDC"}, "source": "patent US20230339863A1", "about": "“INDAZOLE DERIVATIVES AS CANNABINOID RECEPTOR PARTIAL AGONISTS” (RESEARCH TRIANGLE INSTITUTE, priority 2020, published 2023)", "key": {"[1]": {"target": "human CB2 (Homo sapiens (Human), UniProt P34972)", "assay": "In vitro cannabinoid receptor activity assay (calcium mobilization, FLIPR) in CHO cells expressing human CB2 and Gαq16", "format": "cell-based", "conditions": "percentage of the maximum CP55940 signal", "protocol": "(§1) In vitro cannabinoid receptor activity assay. Chinese Hamster Ovary (CHO) cells stably expressing either human CB1 or CB2 cDNA and the promiscuous G-protein Gαq16 were transferred to each well of a black Costar 96-well optical bottom plate (Corning Corporation). Each plate was incubated at 37° C. for 24 hr to confluence. The culture media was removed from the plates and cells were subsequently loaded with a fluorescent calcium probe (Calcium 5 dye, Molecular Devices) at a final loading concentration of 2 μM in a HBSS-based buffer containing 20 mM HEPES, 1% BSA and 10 μM Probenecid (Sigma) in a total volume of 225 μl. Cells were incubated at 37° C. for 1 hr and then stimulated with various concentrations of a test agent using a FLIPR Tetra plate-reader, which automatically added the agonist at 10× concentration to each well after reading baseline values for ˜17 sec. Agonist-mediated change in fluorescence (488 nm excitation, 525 nm emission) was monitored in each well at 1 sec intervals for 60 sec and reported for each well. Data were analyzed using Prism software (GraphPad). Non-linear regression analysis was performed to fit data and obtain maximum response (Emax), effective concentration for 50% response (EC50), correlation coefficient (r2) and other parameters. All experiments were performed 3-6 times to ensure reproducibility. […]"}, "[2]": {"target": "human CB1 (Homo sapiens (Human), UniProt P21554)", "assay": "In vitro cannabinoid receptor activity assay (calcium mobilization, FLIPR) in CHO cells expressing human CB1 and Gαq16", "format": "cell-based", "protocol": "as §1"}}, "note": "pEC50: −log10 of the molar value.", "data": [{"molecule": "CC(=O)Nc1cccc(C(C)(C)NC(=O)c2nn(Cc3ccc(F)cc3)c3ccccc23)c1", "values": [{"measurement": "hCB2 Ca Span", "setting": "[1]", "value": 67, "unit": "%"}, {"measurement": "hCB1 Ca Span", "setting": "[2]; percentage of the maximum CP55940 signal, hCB1", "value": 15, "unit": "%"}, {"measurement": "pEC50", "setting": "[2]; read-out: hCB1 Ca EC50, CHO cells, hCB1, calcium fluorescence", "value": 6.10}]}]}
